The subject of the experiment is rabbit thoracic aorta rings. Put plainly: Rabbit aortic ring vasorelaxation assay. Format: cell-based, New Zealand white rabbits.

Only a part of the results on these compounds is given; other tests are left out.

Turning to sodium nitroprusside, where the note is “GTN tolerant rings compared to control”, the “effect of GTN tolerance on SNP-induced relaxations” value is “no effect”. Where the note is “preincubation with mtALDH inhibitors”, the “effect of preincubation with the mtALDH inhibitors on relaxation induced by this vasodilator” value was “did not attenuate relaxation”.

Source of the values: patent US7691907B2, “Methods and composition based on discovery of metabolism of nitroglycerin” (priority 2002, dated 2010).
